Where a name gives a salt, the structure may show the parent alone.
How the values were obtained:
[1] = target: recombinant human acetylcholinesterase, rHsAChE (Homo sapiens, UniProt P22303); format: biochemical
rSmTAChE = rSmTAChE (Schistosoma mansoni, UniProt A0A3Q0KMM5); format: biochemical;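 on Inhibition (%) (Average): mostly 20 µM final but a few compounds at 5 or 10 µM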;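 on Inhibition (%) Replicate A: mostly 20 µM final but a few compounds at 5 or 10 µM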;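 on Inhibition (%) Replicate B: mostly 20 µM final but a few compounds at 5 or 10 µM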

Amino acid sequences for entries named in this document (tags omitted). Residues count along the entry.
UniProt P22303, 32-614: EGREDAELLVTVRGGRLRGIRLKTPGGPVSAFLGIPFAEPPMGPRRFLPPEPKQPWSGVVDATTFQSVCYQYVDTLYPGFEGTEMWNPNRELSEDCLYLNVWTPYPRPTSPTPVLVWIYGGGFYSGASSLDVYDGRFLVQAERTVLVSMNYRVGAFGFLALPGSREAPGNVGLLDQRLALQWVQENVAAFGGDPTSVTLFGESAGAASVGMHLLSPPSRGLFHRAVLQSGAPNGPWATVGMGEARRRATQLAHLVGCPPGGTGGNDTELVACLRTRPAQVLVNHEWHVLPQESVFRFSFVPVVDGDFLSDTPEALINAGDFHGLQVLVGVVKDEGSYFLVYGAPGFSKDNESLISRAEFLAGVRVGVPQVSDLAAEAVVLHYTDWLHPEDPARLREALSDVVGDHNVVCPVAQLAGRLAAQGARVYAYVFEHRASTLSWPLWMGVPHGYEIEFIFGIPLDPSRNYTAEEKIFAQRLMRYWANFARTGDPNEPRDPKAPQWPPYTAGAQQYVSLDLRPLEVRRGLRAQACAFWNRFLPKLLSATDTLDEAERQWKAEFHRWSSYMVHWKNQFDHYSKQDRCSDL
UniProt A0A3Q0KMM5, 27-661 limits assumed: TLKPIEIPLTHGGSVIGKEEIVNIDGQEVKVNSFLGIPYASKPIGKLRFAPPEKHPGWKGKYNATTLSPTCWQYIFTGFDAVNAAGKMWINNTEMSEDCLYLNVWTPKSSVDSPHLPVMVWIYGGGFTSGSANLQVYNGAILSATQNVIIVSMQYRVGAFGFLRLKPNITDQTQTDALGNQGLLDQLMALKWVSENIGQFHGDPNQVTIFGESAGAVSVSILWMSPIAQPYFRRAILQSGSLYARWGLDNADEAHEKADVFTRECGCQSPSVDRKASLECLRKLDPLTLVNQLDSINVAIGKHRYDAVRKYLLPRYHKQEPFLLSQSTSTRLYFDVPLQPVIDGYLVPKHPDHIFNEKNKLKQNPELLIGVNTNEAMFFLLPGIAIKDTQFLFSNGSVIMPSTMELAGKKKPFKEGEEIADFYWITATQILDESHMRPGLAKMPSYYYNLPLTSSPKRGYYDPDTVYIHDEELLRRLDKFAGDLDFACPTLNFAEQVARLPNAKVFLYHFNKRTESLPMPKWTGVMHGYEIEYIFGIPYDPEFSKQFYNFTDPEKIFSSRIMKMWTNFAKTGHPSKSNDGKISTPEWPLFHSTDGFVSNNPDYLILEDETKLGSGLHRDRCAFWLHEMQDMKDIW

CN(CCCCCCCCCCN(C)C(=O)Oc1cccc([N+](C)(C)C)c1)C(=O)Oc1cccc([N+](C)(C)C)c1 [Demecarium bromide, reference compound]
SI (Sm/Hs) [1]: 531.20 | fold greater potency for HsAChE versus SmTAChE [1]: 531 fold

O=C(NC(=O)c1c(F)cccc1F)Nc1cc(Cl)c(OC(F)(F)C(F)C(F)(F)F)cc1Cl (stereo not shown) [Lufenuron, reference compound]
SI (Sm/Hs) [1]: 3.17

CNC(=O)Oc1ccc2c(c1)[C@]1(C)CCN(C)[C@@H]1N2C [Physostigmine salicylate, reference compound]
Inhibition (%) (Average) (rSmTAChE): 92.00% | Inhibition (%) Replicate A (rSmTAChE): 91.52% | Inhibition (%) Replicate B (rSmTAChE): 92.48% | rSmTAChE HTS Inhibition (Ave, %) (rSmTAChE; 20 µM): 91.99%

CNC(=O)Oc1ccc2c(c1)[C@]1(C)CCN(C)[C@@H]1N2C [Physostigmine sulfate, reference compound]
Inhibition (%) (Average) (rSmTAChE): 106.08% | Inhibition (%) Replicate A (rSmTAChE): 98.42% | Inhibition (%) Replicate B (rSmTAChE): 113.74%

Source: paper PMC12154458, “High-Throughput Screens of Repurposing Hub and DOS Chemical Libraries Reveal Compounds with Novel and Potent Inhibitory Activity Against the Essential Non-Neuronal Acetylcholinesterase of Schistosoma mansoni (SmTAChE)” (International Journal of Molecular Sciences, 2025)
